Assay results as given in PubChem BioAssay AID1259422 (The Scripps Research Institute Molecular Screening Center, 2018).
The list shows a part of the results, in another mix than the full data. Activity calls are given as the source filed them. No stated cut-off is given here; in the data, active means inhibition above about 32%; inactive means the rest.

assay: TEAD-YAP interaction inhibition, primary screen, TEAD-YAP interaction inhibitor project, luminescence, HEK-TIYL cells (AID 1259422); settings: TEAD-Gal4/YAP UAS-luciferase luminescence, at 9.12 µM, stronger effect = higher value;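 further: 0% = median of test compound wells and 100% = reference inhibitor wells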

Structure (SMILES) | inhibition
O=C(Cc1ccc(F)cc1)N(Cc1cccnc1)C1CCN(CCc2ccccn2)CC1 | inactive: 2.79%
Cc1cc(NP(=O)(Oc2ccccc2)Oc2ccccc2)no1 | inactive: 0.25%
CCN(CC)C(=O)NP(=O)(Oc1ccccc1)Oc1ccccc1 | inactive: 9.19%
COc1ccc(NC(=O)c2cc([N+](=O)[O-])cc([N+](=O)[O-])c2)c([N+](=O)[O-])c1 | inactive: -3.15%
O=C(Nc1ccncc1[N+](=O)[O-])c1ccc([N+](=O)[O-])cc1[N+](=O)[O-] | inactive: 10.9%
O=C(COC(=O)c1ccc([N+](=O)[O-])cc1[N+](=O)[O-])c1ccc([N+](=O)[O-])cc1 | inactive: 21%
COc1cc(NC(=O)COC(=O)C(O)(c2ccccc2)c2ccccc2)cc(OC)c1 | inactive: -3.85%
Cc1cc(NP(=O)(/C=C(\Cl)c2ccccc2)/C=C(\Cl)c2ccccc2)n[nH]1 | inactive: 9.29%
COc1ccc(CCN2CCC(N(Cc3cccnc3)C(=O)NC(C)C)CC2)cc1 | inactive: -2.94%
O=[N+]([O-])c1ccc(N/N=C/c2cc3c(cc2[N+](=O)[O-])OCO3)c([N+](=O)[O-])c1 | inactive: -4.61%
OP1(c2ccccc2)=NC(c2ccccc2)=NC(C(Cl)(Cl)Cl)=N1 (configuration not stated) | inactive: -1.56%
O=C(Oc1ccc([N+](=O)[O-])cc1[N+](=O)[O-])c1ccc(Cl)cc1[N+](=O)[O-] | inactive: 7.02%
O=C(c1cccnc1)N(Cc1ccco1)C1CCN(CCc2cccs2)CC1 | inactive: -1.24%
CCOP(=O)(OCC)SCC(=O)NCC(=O)O | inactive: 7.11%
CCOP(=S)(OCC)C1(C#N)CCCC1 | inactive: 6.38%
CCCOP(=O)(OCCC)O/C(C)=C/SC#N | inactive: 10.7%
ICC1CN=C(Nc2ncccn2)S1 (configuration not stated) | inactive: 2.32%
CC(=O)N(Cc1cccnc1)C1CCN(CCc2ccccn2)CC1 | inactive: 1.11%
O=[N+]([O-])c1ccc(C(O)C(CO)Nc2ccc([N+](=O)[O-])cc2[N+](=O)[O-])cc1 (configuration not stated) | inactive: -1.06%
O=C(COC(=O)C(O)(c1ccccc1)c1ccccc1)NCC(F)(F)F | inactive: -12.6%
BrCC1CN=C(Nc2ccccc2Br)S1 (configuration not stated) | inactive: 4.24%
CC(C)OP(=O)(OC(C)C)C(=O)c1ccccc1 | inactive: -0.75%
c1ccc2nc(-c3nc4ccccc4[nH]3)ccc2c1 | active: 68.7%

Structure (SMILES) | inhibition
CC(C)COP(=O)(Nc1cccc(F)c1)OCC(C)C | inactive: 4.93%
CC1CN(c2ccc([N+](=O)[O-])cc2[N+](=O)[O-])CCN1c1ccc([N+](=O)[O-])cc1[N+](=O)[O-] (configuration not stated) | inactive: -4.99%
O=C(Nc1nnc(-c2cccc([N+](=O)[O-])c2)s1)c1ccc([N+](=O)[O-])cc1[N+](=O)[O-] | inactive: -3.43%
Cc1cc(=O)[nH]c(N[N+](=O)[O-])n1 | inactive: -1.35%
COc1ccc(C)cc1NC(=O)N(Cc1ccco1)C1CCN(CCc2ccccn2)CC1 | inactive: 8.48%
CCOP(=S)(OCC)SCC(=O)NC(C)C(=O)NC (configuration not stated) | inactive: 0.88%
COc1ccc(CCN2CCC(N(Cc3cccnc3)C(C)=O)CC2)cc1 | inactive: 2.94%
CN(C)P1(=O)Nc2ccccc2S1 (configuration not stated) | inactive: 5.56%
Cc1cccc(NP(=O)(c2ccccc2)c2ccccc2)n1 | inactive: -1.01%
COP(=O)(OC)C(NC(=O)c1ccc(C)cc1)=C(Cl)Cl | inactive: 7.91%
COC(=O)N(c1ccc(OC)cc1)P1(=S)OCC(C)O1 (configuration not stated) | inactive: -13.2%
CN(C)CCCN(C)Cc1cc2ccccc2o1 | inactive: 6.41%
CC(C)NC(=O)NP(=O)(Oc1ccccc1)Oc1ccccc1 | inactive: -0.7%
CCN(CCCl)c1ccc(C=C(C#N)C#N)c(C)c1 | inactive: 0.77%
COP1(=S)N=C2c3ccccc3CN2c2cc(N(C)C)ccc21 (configuration not stated) | inactive: 11.5%
Nc1nonc1OCCOc1nonc1N | inactive: 3.53%
CCOP(=S)(OCC)SCC(=O)NC(C)C(=O)O (configuration not stated) | inactive: 10%
CCCOc1ccc(S(=O)(=O)N(CCCl)CCCl)cc1 | inactive: 3.06%
O=[N+]([O-])c1ccc2no[n+]([O-])c2c1 | inactive: -9.26%
O=[N+]([O-])c1cc([N+](=O)[O-])c(Nc2ccccc2)c([N+](=O)[O-])n1 | inactive: 16.6%
O=C(NNC(=O)c1ccncc1)NP1Oc2ccccc2O1 | inactive: 5.18%
O=C(c1cccnc1)N(Cc1ccco1)C1CCN(CCc2ccc(Cl)cc2)CC1 | inactive: -4.75%
O=P1(Nc2nc(-c3ccccc3)cs2)C=C(c2ccccc2)OC(c2ccccc2)=C1 | inactive: -0.97%

Structure (SMILES) | inhibition
O=[N+]([O-])c1ccc(/C=C/C=N/Nc2ccc([N+](=O)[O-])cc2[N+](=O)[O-])cc1 | inactive: 4.92%
CC(C)OP(=O)(NC(C)(C)C)C(Cl)Cl (configuration not stated) | inactive: -4.42%
CCOP(=O)(OCC)C(=O)c1ccc(OC)cc1 | inactive: -1.26%
CC(C)OP(=O)(OC(C)C)C(=O)c1ccc(F)cc1 | inactive: 0.63%
O=[N+]([O-])c1cc([N+](=O)[O-])c2[nH]ncc2c1 | inactive: 3.95%
O=C(Cn1cnc([N+](=O)[O-])n1)NCCO[N+](=O)[O-] | inactive: -0.1%
CCOP(=O)(OCC)C(=O)c1ccccc1Cl | inactive: -0.11%
O=C(Nc1ccccc1[N+](=O)[O-])c1ccc([N+](=O)[O-])cc1[N+](=O)[O-] | inactive: 7.09%
COc1ccc(NC2=NCC(CBr)S2)cc1 (configuration not stated) | inactive: -7.72%
O=[N+]([O-])c1cc([N+](=O)[O-])c(CCN2CCOCC2)c([N+](=O)[O-])c1 | inactive: -10.2%
CN(C(=O)COC(=O)C(O)(c1ccccc1)c1ccccc1)c1ccccc1 | inactive: 14.8%
O=[N+]([O-])c1ccc(Oc2ccccc2[N+](=O)[O-])c([N+](=O)[O-])c1 | inactive: -4.68%
CCOP(=Nc1nc2ccccc2n2nnnc12)(OCC)OCC | inactive: -2.26%
O=[N+]([O-])c1cc([N+](=O)[O-])c(OCC(O)C[n+]2ccccc2)c([N+](=O)[O-])c1 (configuration not stated) | inactive: 0.15%
Nc1c([N+](=O)[O-])cc([N+](=O)[O-])c(Nc2cccc(C(=O)O)c2)c1[N+](=O)[O-] | inactive: 5.72%
N=C1N=C(c2ccc([N+](=O)[O-])cc2)CC(C(Cl)(Cl)Cl)S1 (configuration not stated) | inactive: -0.02%
Cc1cc(SC(NC(=O)CC(C)C)C(Cl)(Cl)Cl)ncn1 (configuration not stated) | inactive: -1.07%
CC(=O)OC=C1c2cc([N+](=O)[O-])cc([N+](=O)[O-])c2-c2c1cc([N+](=O)[O-])cc2[N+](=O)[O-] | inactive: -6.03%
Nc1cc(N)c2nonc2c1[N+](=O)[O-] | inactive: 1.27%
O=C(Nc1ccc([N+](=O)[O-])cc1Cl)c1ccc([N+](=O)[O-])cc1[N+](=O)[O-] | inactive: 29.8%
Oc1ccccc1CNc1ccccn1 | inactive: -30.8%
COc1ccc2c(c1)nc(NCCCl)n2C | inactive: 13.6%
CCN(CC)C1=NP(=O)(c2ccccc2)NC(c2ccccc2)=C1C#N (configuration not stated) | inactive: -3.62%

Structure (SMILES) | inhibition
COc1ccc(CCN2CCC(N(Cc3ccco3)C(=O)NC(C)C)CC2)cc1 | inactive: -3.7%
Cc1cc(C)nc(SC(NC(=O)C(C)C)C(Cl)(Cl)Cl)n1 (configuration not stated) | inactive: 8.45%
CCOC(=O)N1C2CCC1CC(OC(=O)C(O)(c1ccccc1)c1ccccc1)C2 (configuration not stated) | inactive: -14.2%
CCOc1ccc(/C=C2/C(=O)NC(=O)N(Cc3ccco3)C2=O)cc1 | inactive: -5.75%
CCCCOP(=O)(OCCCC)SC | inactive: -6.54%
CCOP(=O)(OCC)SCC(=O)NCCC(=O)O | inactive: 12.7%
COC(=O)c1ccc(OP2(=S)OCC(C)(C)CO2)cc1 | inactive: -23.7%
O=C(Nc1ccc(C(F)(F)F)cc1[N+](=O)[O-])c1cc([N+](=O)[O-])cc([N+](=O)[O-])c1 | inactive: 12.3%
NC(=O)c1cc([N+](=O)[O-])cc([N+](=O)[O-])c1N | inactive: -3.81%
Cc1ccc(N/C(=N/P(=O)(N2CCOCC2)N2CCOCC2)N2CCOCC2)cc1 | inactive: -8.97%
Cc1cc(C)nc(NNc2c([N+](=O)[O-])cc([N+](=O)[O-])c(C)c2[N+](=O)[O-])n1 | inactive: -3.85%
Cc1ccc(S(=O)(=O)N2C(=O)CSC2C(Cl)(Cl)Cl)cc1 (configuration not stated) | inactive: 24.3%
CCOP(=O)(Nc1cccc(C(F)(F)F)c1)OCC | inactive: 4.74%
CCCCOP1(=S)N=C2c3ccccc3CN2c2cc(N(C)C)ccc21 (configuration not stated) | inactive: 2.34%
O=P(Nc1ccccn1)(OCC(F)(F)F)Oc1ccccc1 (configuration not stated) | inactive: 8.22%
O=C(OC1CN2CCC1CC2)C1COc2ccccc2O1 (configuration not stated) | inactive: 12%
COP(=O)(NS(=O)(=O)c1ccc(Cl)cc1)OC | inactive: -6.79%
O=C(CCNCCCl)c1ccccc1 | inactive: -9.33%
O=C(N/N=C/c1ccc([N+](=O)[O-])cc1)c1cc([N+](=O)[O-])cc([N+](=O)[O-])c1 | inactive: -1.63%
Cc1nc(Nc2cccc([N+](=O)[O-])c2)nc(Nc2cccc([N+](=O)[O-])c2)c1[N+](=O)[O-] | inactive: -5.02%
Cc1cc(NP2(=O)C=C(c3ccccc3)SC(c3ccccc3)=C2)n[nH]1 | inactive: -7.71%
Cc1cccc(NC2=NCC(CBr)S2)c1 (configuration not stated) | inactive: -14.9%
Cc1c([N+](=O)[O-])cc(C(=O)Nc2ccc([N+](=O)[O-])cc2)cc1[N+](=O)[O-] | inactive: 2.14%
